## AlphaSeq binding of Ab-14 light chain variants to a spike HR2 peptide

From the AlphaSeq antibody data of Li et al. 2023 (doi:10.1038/s41467-023-39022-2), copy in the FLAb collection.

Target: peptide PDVDLGDISGINAS, taken from heptad repeat 2 (HR2) of SARS-CoV-2 spike.

Parent scFv Ab-14: VH joined to VL by the linker GGGGSGGGGSGGGGS. Changes lie in the light chain CDRs alone.
VH: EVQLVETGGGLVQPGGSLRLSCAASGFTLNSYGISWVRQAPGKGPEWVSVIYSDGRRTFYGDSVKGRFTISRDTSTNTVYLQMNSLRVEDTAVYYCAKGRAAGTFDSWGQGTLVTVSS
VL: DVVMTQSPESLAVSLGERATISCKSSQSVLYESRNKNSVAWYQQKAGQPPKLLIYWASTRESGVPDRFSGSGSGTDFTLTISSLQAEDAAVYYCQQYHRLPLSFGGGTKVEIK

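The starting antibody came from a phage panning campaign against this peptide. These sequences belong to a second round, designed from the earlier measurements on random variants of the parent. Several design methods are mixed in this list. Affinity was read by AlphaSeq, a pooled yeast mating assay with surface-displayed partners. Mating (16 h, 30 °C) was followed by selection of diploids and sequencing of their barcodes. A regression on co-assayed BCL2-family reference pairs converts the normalised counts of each replicate to an apparent Kd. Mating was done six times.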

The parent's light chain CDRs are KSSQSVLYESRNKNSVA, WASTRES, QQYHRLPLS; each variant's own CDRs replace them letter for letter.
Variants here have more than six changes.
Kd is apparent (estimated from mating counts) and averaged on the log scale over replicates with a signal. Smaller is tighter.
A pair that was not seen in any replicate is written "nd"; this usually means weak binding, but a binder can also be missed.
Entries are sorted by rising average, undetected variants last.

Variant KVMQSVLYESRNVNNVA | NGSTREL | QQYHRLPLS showed 460 pM (6 of 6 replicates). Variant KFMQSMGYESRNQNNVA | DASTRMS | QQYHRLPLS gave 580 pM (6 of 6 replicates). Variant TISQVMNTLTRNTNNVA | DLTEREK | QQYFRLPLS showed 750 pM (6 of 6 replicates). With KIGMTLNQLMQKKNNVA | DLVTREA | QQYHRLPLS the result was 790 pM (6 of 6 replicates). For KIGDTLNQLMTKRNNVA | DLVTREN | QQYFRLPLS, the assay gave 800 pM (6 of 6 replicates).

With SIYDATGMESRNKNPIA | DVSTRPN | QQYHRLPLS the result was 920 pM (6 of 6 replicates). Variant KLKYQADQYGGQWNNVA | HADIRAP | QQYMKLPLN gave 1.1 nM (6 of 6 replicates). Variant WLNWEGQGDDRGMSNIA | DSDTRMA | QQYHRLPLS gave 1.2 nM (6 of 6 replicates). For KLSQSWWMESRNPNNVA | HASKRES | QQYHRLPLS, the assay gave 1.3 nM (6 of 6 replicates). For ALSQNGPQQHGMRDSIA | HSDQRLA | QQYYHLPLA, the assay gave 1.7 nM (6 of 6 replicates).

Variant KVSLSVELESRLKNSVA | EASTRCE | QQYHRLPLS showed 1.8 nM (5 of 6 replicates). Variant SLRAMILDWDNKRQNIA | DVHMREQ | QQYNRLPIV gave 1.9 nM (6 of 6 replicates). For KFDQSWLYESRNKNNVA | HASQRCS | QQYHRLPLS, the assay gave 2.1 nM (6 of 6 replicates). With HVKEDLNMGMKFQSSVA | SGAHREI | QQYYRLPLG the result was 2.4 nM (6 of 6 replicates). Variant KLSQVTEYEMHNKDNVA | DLTTRGA | QDYHRLPLS gave 2.4 nM (6 of 6 replicates).

Variant KIYQVGLGSQKVDRNIA | ETSTRCT | QSYQRLPLS showed 2.9 nM (6 of 6 replicates). With QLLGATMQETYNKNSVA | HAETRED | QSYHRLPLS the result was 3.0 nM (6 of 6 replicates). Variant NLSYRQFEPTGMVNSVA | QTSLRAH | QQYAHLPLC showed 3.5 nM (6 of 6 replicates). With MFSQLVYTGEKTRNAVA | QASTREN | QQYHHLPLS the result was 4.0 nM (6 of 6 replicates). For ILSQSVLMGMHTKNSVA | QATMRFN | QQYDRLPLM, the assay gave 4.0 nM (6 of 6 replicates).

Variant TISQVLNTLTRTGNNVA | DLAERED | QQYFRLPLS gave 4.2 nM (6 of 6 replicates). Variant KISSLTTYESVNKNSVA | EMSTRPS | QSYHRLPLS gave 4.3 nM (6 of 6 replicates). With KISMVMENQLKNRNSVA | ELVTRVN | QQYARLPLS the result was 4.4 nM (6 of 6 replicates). Variant VFQQQWDGHTDTNSSVA | NVDERME | QQYYRLPLL gave 5.1 nM (6 of 6 replicates). For KVSIFMLTMDNAWSSIA | NMAEERT | QQYQRLPLS, the assay gave 5.8 nM (1 of 6 replicates).

With KLGGATRFESSNKASIA | DNSTRES | QQYHRLPLS the result was 6.4 nM (6 of 6 replicates). Variant MLSHVADISSKNRNSVA | EMTTREN | QQYDRLPLI gave 6.4 nM (6 of 6 replicates). Variant TISQMTSLFSQTINNVA | EVSTREP | QQYDRLPLA showed 7.3 nM (6 of 6 replicates). Variant HMSMLTLGGMRHRNSVA | QMTTREN | QQYDHLPLS gave 9.6 nM (6 of 6 replicates). For MMSQVTGMELRQQNNVA | QTTTRES | QQYDRLPLV, the assay gave 9.6 nM (6 of 6 replicates).

For QLEVERGQEWKAGAAIA | GNTEKLH | QQYAMLPLS, the assay gave 11 nM (6 of 6 replicates). For NVGQSMDGEMRNKNSVA | HQSTRED | QHYHRLPLS, the assay gave 12 nM (6 of 6 replicates). With KLALVTGTEKVIGNNVA | EMETREK | QQYNRLPLA the result was 13 nM (6 of 6 replicates). For NVGQSMDGELRNKNSVA | HQSTRED | QHYHRLPLS, the assay gave 13 nM (6 of 6 replicates). Variant MLALPQKELGYAKDAVA | DGSIRLG | QQYHRLPLT gave 15 nM (5 of 6 replicates).

Variant KLMGSMLYESRNWNSVA | HASHRES | QQYHRLPLS gave 19 nM (6 of 6 replicates). Variant KLYMSTGYESRNKDSIA | DNSTRGR | QQYDRLPLS showed 19 nM (3 of 6 replicates). Variant KISINQSNYNGMRSAIA | NTNLARM | QQYFHLPLM showed 20 nM (5 of 6 replicates). Variant HMSMITLQGQRHRNAVA | QMTTREN | QQYDHLPLS gave 21 nM (6 of 6 replicates). For KLRQSTVIESFEKNNVA | EMTTRES | QSYDRLPLS, the assay gave 22 nM (6 of 6 replicates).

Variant KLSSLQFDSYMEKENVA | ESTQVFS | QQYHRLPLA gave 25 nM (6 of 6 replicates). For HVSGLYTDESVRWYNIA | ETSHVEM | QQYERLPLI, the assay gave 31 nM (6 of 6 replicates). With KLDYLNGEMDIGGDSIA | EVSTAGM | QQYWRLPLS the result was 40 nM (6 of 6 replicates). Variant KLSQLFYKEMKNKNNVA | EMTTRGS | QQYDRLPLS showed 70 nM (6 of 6 replicates). For KIGQLLMLEQYRKNNVA | GTETRVT | QHYHRLPLS, the assay gave 90 nM (2 of 6 replicates).

For SLSLSMAFLSRNKNSVA | ENSTRES | QQYHRLPLL, the assay gave 180 nM (2 of 6 replicates). With MISQMYNMGQFAINSVA | QASQRNE | QQYDRLPLT the result was 230 nM (6 of 6 replicates). Variant TLSGHQYNYSQKKNSIA | EDNNIRL | QQYWRLPLM gave nd (0 of 6 replicates). Variant MISQIYNMGQFAINSVA | QASIRNS | QQYDRLPLI showed nd (0 of 6 replicates). Variant KLMNQMGGIQIMKNSIA | NLEIGAR | QQYAHLPLV gave nd (0 of 6 replicates).

Variant HMSMLTLGGLKNRNSVA | QMTTREN | QQYDRLPLA gave nd (0 of 6 replicates).

Of ten entries with the parent sequence, four were seen in most replicates (averages 2.2 nM to 240 nM), three in one and three in none, so single entries are noisy.
The authors averaged sequences with at least three values out of six and counted those with two or fewer as poor binders.
Values of this round are not directly comparable with the first-round values of the same sequences.
Nonspecific signal, from three strains lacking the peptide, appeared in 4% of pairings of all light chain designs, centred on 430 nM (5% of these signals below 38 nM); values are not corrected for it.